Results taken from patent publication US8748375B2 (Amylin Pharmaceuticals, LLC, priority 2009, dated 2014).

Columns and labels:
[1] = system: insulin-stimulated glycogen synthesis in soleus muscle; assay: Soleus Muscle Assay; type: cell-based, rat
Protocol: Concentrations of peptide dissolved in carrier-free buffers are determined by quantitative amino acid analysis, as described therein. The ability of compounds to act as agonists in this assay is determined by measuring EC50 values. […] Similar results were obtained with other agonist compounds listed above.

amylin receptors = target: T1, amylin receptors (Rattus norvegicus, UniProt P32214+Q9JJ74); assay: Receptor Binding Assay
T1 construct: This basal forebrain tissue, containing the nucleus accumbens and surrounding regions, was weighed and homogenized; from tissue; host or cells: rat basal forebrain (nucleus accumbens and surrounding regions) membranes
T1 sequence (P32214 25-516): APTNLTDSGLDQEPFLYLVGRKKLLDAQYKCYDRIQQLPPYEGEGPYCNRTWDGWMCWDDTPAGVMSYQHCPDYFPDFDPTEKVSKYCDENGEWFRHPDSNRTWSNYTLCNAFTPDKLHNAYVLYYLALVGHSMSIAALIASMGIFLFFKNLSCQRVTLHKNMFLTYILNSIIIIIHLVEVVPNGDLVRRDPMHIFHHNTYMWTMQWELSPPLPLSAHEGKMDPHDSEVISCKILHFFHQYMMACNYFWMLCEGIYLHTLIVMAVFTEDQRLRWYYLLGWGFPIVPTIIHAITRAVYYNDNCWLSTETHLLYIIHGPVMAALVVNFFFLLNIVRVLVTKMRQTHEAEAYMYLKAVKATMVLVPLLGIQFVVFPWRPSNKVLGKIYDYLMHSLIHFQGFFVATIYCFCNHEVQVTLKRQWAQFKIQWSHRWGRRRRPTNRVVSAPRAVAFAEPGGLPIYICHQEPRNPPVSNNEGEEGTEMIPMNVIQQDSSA
T1 sequence (Q9JJ74 27-148): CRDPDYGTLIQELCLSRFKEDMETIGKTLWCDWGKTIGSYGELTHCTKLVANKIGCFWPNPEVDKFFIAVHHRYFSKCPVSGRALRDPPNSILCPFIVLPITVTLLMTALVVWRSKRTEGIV
Source text: A preferred source of the membrane preparations used in the assay is the basal forebrain which comprises membranes from the nucleus accumbens and surrounding regions.
Unlabeled peptides were obtained from BACHEM Inc. (Torrance, Calif.) and Peninsula Laboratories (Belmont, Calif.).
Male Sprague-Dawley rats (200-250) grams were sacrificed by decapitation. Brains were removed to cold phosphate-buffered saline (PBS). From the ventral surface, cuts were made rostral to the hypothalamus, bounded laterally by the olfactory tracts and extending at a 45° angle medially from these tracts. This basal forebrain tissue, containing the nucleus accumbens and surrounding regions, was weighed and homogenized in ice-cold 20 mM HEPES buffer (20 mM HEPES acid, pH adjusted to 7.4 with NaOH at 23° C.). […] The final membrane pellet was resuspended in 20 mM HEPES buffer containing 0.2 mM phenylmethylsulfonyl fluoride (PMSF).
Solutions were incubated for 60 minutes at 23° C. […] Filters were washed immediately before filtration with 5 ml cold PBS, and immediately after filtration with 15 ml cold PBS.

receptor binding activity (in words) (amylin receptors) | Structure (SMILES) | amylin agonist activity (in words) [1] | antagonist activity in soleus muscle assay (in words) [1]
compete with amylin | CC[C@H](C)[C@H](NC(=O)[C@@H]1CCCN1C(=O)CNC(=O)[C@H](Cc1ccccc1)NC(=O)[C@H](CC(N)=O)NC(=O)[C@H](CC(N)=O)NC(=O)[C@H](CO)NC(=O)[C@H](CO)NC(=O)[C@H](CCCNC(=N)N)NC(=O)[C@@H](NC(=O)[C@H](CC(C)C)NC(=O)[C@H](Cc1ccccc1)NC(=O)[C@H](CC(N)=O)NC(=O)[C@H](C)NC(=O)[C@H](CC(C)C)NC(=O)[C@H](CCCNC(=N)N)NC(=O)[C@H](CCC(N)=O)NC(=O)[C@@H](NC(=O)[C@H](C)NC(=O)[C@@H]1CSSC[C@H](N)C(=O)N[C@@H](CC(N)=O)C(=O)N[C@@H]([C@@H](C)O)C(=O)N[C@@H](C)C(=O)N[C@@H]([C@@H](C)O)C(=O)N1)[C@@H](C)O)C(C)C)C(=O)N[C@@H](CC(C)C)C(=O)N1CCC[C@H]1C(=O)N[C@@H](CO)C(=O)N[C@H](C(=O)N[C@@H](CC(N)=O)C(=O)N[C@H](C(=O)NCC(=O)N[C@@H](CO)C(=O)N[C@@H](CC(N)=O)C(=O)N[C@H](C(=O)N[C@@H](Cc1ccc(O)cc1)C(N)=O)[C@@H](C)O)C(C)C)[C@@H](C)O [des-^1Lys^18Arg^25, 28Pro-h-Amylin] | act as amylin agonists | negligible antagonist activity
compete with amylin | CC[C@H](C)[C@H](NC(=O)[C@@H]1CCCN1C(=O)CNC(=O)[C@H](Cc1ccccc1)NC(=O)[C@H](CC(N)=O)NC(=O)[C@H](CC(N)=O)NC(=O)[C@H](CO)NC(=O)[C@H](CO)NC(=O)[C@H](CCCNC(=N)N)NC(=O)[C@@H](NC(=O)[C@H](CC(C)C)NC(=O)[C@H](Cc1ccccc1)NC(=O)[C@H](CC(N)=O)NC(=O)[C@H](C)NC(=O)[C@H](CC(C)C)NC(=O)[C@H](CCCNC(=N)N)NC(=O)[C@H](CCC(N)=O)NC(=O)[C@@H](NC(=O)[C@H](C)NC(=O)[C@@H]1CSSC[C@H](NC(=O)[C@@H](N)CCCCN)C(=O)N[C@@H](CC(N)=O)C(=O)N[C@@H]([C@@H](C)O)C(=O)N[C@@H](C)C(=O)N[C@@H]([C@@H](C)O)C(=O)N1)[C@@H](C)O)C(C)C)C(=O)N[C@@H](CC(C)C)C(=O)N1CCC[C@H]1C(=O)N[C@@H](CO)C(=O)N[C@H](C(=O)N[C@@H](CC(N)=O)C(=O)N[C@H](C(=O)NCC(=O)N[C@@H](CO)C(=O)N[C@@H](CC(N)=O)C(=O)N[C@H](C(=O)N[C@@H](Cc1ccc(O)cc1)C(N)=O)[C@@H](C)O)C(C)C)[C@@H](C)O [^18Arg^25, 28Pro-h-Amylin] | act as amylin agonists | negligible antagonist activity
